Literature values as cited in publication PMC8154576, “GPR120/FFAR4 Pharmacology: Focus on Agonists in Type 2 Diabetes Mellitus Drug Discovery” (Journal of Medicinal Chemistry, 2021).

How the values were obtained:
DIO mice = conditions: mouse, in vivo
hGPR120 [1] = conditions: read-out: hGPR120 EC50 (β-arr)
hGPR40 = conditions: read-out: hGPR40 EC50 (Ca2+)
hGPR120 [2] = conditions: read-out: hGPR120 EC50 (Ca2+)
[3] = in vivo

Question: With `Cc1ccc(-c2ccc(F)cc2COc2ccc(CCC(=O)O)cc2)cc1` [Compound 4] as the molecule, how does the “GLP-1 secretion from STC-1 cells” value (STC-1 cells) read?
Answer: statistically significant GLP-1 secretion

Question: Which glucose levels (DIO mice) does the source give for `[2H]C([2H])(Cc1ccc(OCc2cc(F)ccc2-c2ccc(C)cc2)cc1)C(=O)O` [Compound 18] here?
Answer: significant reduction in glucose levels

Question: What about the EC50 (hGPR120 [1]) of the same molecule?
Answer: 63.1 nM

Question: Which EC50 (hGPR40) does the source give for `Cc1ccc(-n2nc(C)c3ccc(-c4ccc([C@@H]5C[C@H]5C(=O)O)cc4)cc32)cc1` [Compound 29] here?
Answer: > 100000 nM

Question: And the EC50 (hGPR120 [2])?
Answer: 360 nM

Question: What about the EC50 (muGPR40) of the same molecule?
Answer: > 100000 nM

Question: What about the oral exposure [3] of the same molecule?
Answer: moderate oral exposure

Where two headings read alike, the source gives them in different places.
